Experimental data taken from PubChem BioAssay AID651686 (The Scripps Research Institute Molecular Screening Center, 2012).
Active and inactive are the calls of the source. No rule for the calls is given here.

Tested on: OPRD1 counterscreen cells, luminescence, activation
Test: OPRD1 cell luminescence activation counter-screen – dose response, counter-screen for OPRM1-OPRD1 heterodimer activator project, late-stage follow-up (AID 651686)

## CCOc1ccc(CN2CCC(Nc3cccc4ccccc34)CC2)cc1C#N
  EC50: inactive: > 40 µM
